Target: T1, σ2 receptor (Rattus norvegicus, UniProt Q5U3Y7)
T1 construct: tissue Harlan Winkelmann; host or cells: rat liver membranes
T1 sequence (Q5U3Y7 1-176): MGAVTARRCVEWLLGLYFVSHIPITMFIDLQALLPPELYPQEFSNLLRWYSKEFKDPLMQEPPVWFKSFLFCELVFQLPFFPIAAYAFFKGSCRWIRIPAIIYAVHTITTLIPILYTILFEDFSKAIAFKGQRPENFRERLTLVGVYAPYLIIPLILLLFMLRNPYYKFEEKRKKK
Test: Receptor binding assay with [3H]-ditolylguanidine on rat liver membranes
Conditions: 3 nM [3H]-ditolylguanidine with 2 µM (+)-pentazocine
Experimental: The pig brains were a donation of the local slaughterhouse (Coesfeld, Germany). Homogenizer: Elvehjem Potter (B. Braun Biotech International, Melsungen, Germany). Centrifuge: High-speed cooling centrifuge model Sorvall RC-5C plus (Thermo Fisher Scientific, Langenselbold, Germany). Filter: Printed Filtermat Typ A and B (Perkin Elmer LAS, Rodgau-Jügesheim, Germany), presoaked in 0.5% aqueous polyethylenimine for 2 h at room temperature before use. […] Before filling to the final volume of 1000 mL, the pH of the solution was adjusted to pH=7.5 by dropwise addition of 1M HCl. The filtration was carried out with a MicroBeta FilterMate-96 Harvester (Perkin Elmer). The scintillation analysis was performed using Meltilex (Typ A or B) solid scintillator (Perkin Elmer). […] After solidifying of the scintillator at room temperature, the scintillation was measured using a MicroBeta Trilux scintillation analyzer (Perkin Elmer). […]
Two rat livers (Harlan Winkelmann, Borchen, Germany) were cut into smaller pieces and homogenized with the potter (500-800 rpm, 10 up-and-down strokes) in 6 volumes of cold 0.32 M sucrose. […] The final pellet was resuspended in 5 to 6 volumes of buffer, the protein concentration was determined according to the method of Bradford using bovine serum albumin as standard, and subsequently the preparation was frozen (-80 °C) in 1.5 mL portions containing about 2 mg protein/mL. […]

For `Oc1ccc2c(c1)CCN(CCCCc1ccccc1)CC2O` (stereo not shown) [formula (4)], the “inhibition of the σ2 receptor only at concentrations above” value was “above 1 µM”.

Source: EP2246331A1, “NR2B-selective NMDA-receptor antagonists” (Westfälische Wilhelms-Universität Münster, priority 2009, dated 2010)
